# Biological target: PCAF bromodomain (His/Flag epitope tagged PCAF719-832) (Homo sapiens (Human), UniProt Q92831)
# Chains of the proteins cited; added tags and fusions are not shown. Residues count along the entry.
# UniProt Q92831, 719-832: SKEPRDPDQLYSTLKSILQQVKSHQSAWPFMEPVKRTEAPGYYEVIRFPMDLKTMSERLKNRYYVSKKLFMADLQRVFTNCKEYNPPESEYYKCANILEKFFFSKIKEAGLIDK
# Experiment: PCAF AlphaLisa binding assay
# Settings: PCAF bromodomain 225 nM, biotinylated small molecule ligand 6 nM
# Description: IC50 Measurements for Inhibitors Using PCAF AlphaLisa Binding Assay
# PCAF bromodomain binding and inhibition of the compounds disclosed herein was assessed by monitoring the engagement of biotinylated small molecule ligand (known to bind to the PCAF bromodomain) with the target using the AlphaLisa technology (Perkin-Elmer).
row,SMILES,IC50 [µM]
1,"Cn1ncc(NC2CCCN(CCCc3ccccc3)C2)c(Cl)c1=O (racemic) [Example 41, Racemic-4-chloro-2-methyl-5-[[1-(3-phenylpropyl)-3-piperidyl]amino]pyridazin-3-one]",0.232
2,"Cn1ncc(N[C@@H]2CCCN(Cc3ccccc3)C2)c(Cl)c1=O [Example 7, (R)-5-((1-benzylpiperidin-3-yl)amino)-4-chloro-2-methylpyridazin-3(2H)-one]",0.0856
3,"Cn1ncc(N[C@H]2CCCN(Cc3ccccc3)C2)c(Cl)c1=O [Example 8, (S)-5-((1-benzylpiperidin-3-yl)amino)-4-chloro-2-methylpyridazin-3(2H)-one]",0.349
4,"C[C@H]1C[C@@H](Nc2cnn(C)c(=O)c2Cl)CN(C)C1 [Example 22, 4-chloro-5-(((3R,5S)-1,5-dimethylpiperidin-3-yl)amino)-2-methylpyridazin-3(2H)-one]",0.0215
5,"C[C@@H]1C[C@H](Nc2cnn(C)c(=O)c2Cl)CN(C)C1 [Example 23, 4-chloro-5-(((3S,5R)-1,5-dimethylpiperidin-3-yl)amino)-2-methylpyridazin-3(2H)-one]",0.902

# Reference: US10239861B2, “Therapeutic compounds and uses thereof” (GENENTECH, INC., priority 2015, dated 2019)
